Apparent affinities of Ab-14 variants for a coronavirus HR2 peptide

Target peptide (SARS-CoV-2 spike, HR2 region): PDVDLGDISGINAS

Parent: Ab-14, a human scFv built as VH, a 15-residue (Gly4Ser)3 linker, VL. Only the CDRs of the light chain vary.
VH: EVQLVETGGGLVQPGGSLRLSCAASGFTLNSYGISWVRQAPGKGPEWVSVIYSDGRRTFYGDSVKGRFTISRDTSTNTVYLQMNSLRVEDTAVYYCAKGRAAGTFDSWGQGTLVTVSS
VL: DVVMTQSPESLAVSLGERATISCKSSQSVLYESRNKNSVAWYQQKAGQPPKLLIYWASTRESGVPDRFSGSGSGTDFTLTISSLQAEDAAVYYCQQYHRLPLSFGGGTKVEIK

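These sequences belong to a second round, designed from the earlier measurements on random variants of the parent. Several design methods are mixed in this list. The assay is AlphaSeq: two haploid yeast populations carry antibody and antigen on their surface. Binding brings cells together so that they mate, and sequencing counts the barcode pairs among the diploids. Each replicate has its own calibration line, from reference interactions of the BCL2 family. There are six technical replicates.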

The parent's light chain CDRs are KSSQSVLYESRNKNSVA, WASTRES, QQYHRLPLS; each variant's own CDRs replace them letter for letter.
This list holds designs with at most six substitutions.
Numbers give log10(Kd / nM), so 0 is 1 nM and 3 is 1 µM. Smaller is tighter.
A pair that was not seen in that replicate is written "nd"; this usually means weak binding, but a binder can also be missed.
The parent sequence was in this pool as ten entries: three were never detected, three once, and four in most replicates, with averages from 0.34 to 2.37.

The variant KLRQSMLYESRNKNSVA / NASTRES / QQYHRLPLS gave 0.59, 0.42, 0.38, 0.42, 0.64, 0.77. The variant KLSESELYESRNKNSVA / NASTRLS / QQYHRLPLS gave -0.17, -0.24, -0.27, -0.35, -0.13, -0.15. The variant KLSMSELPESRNKNSVA / WASTRMP / QQYHRLPLS gave 0.19, 0.05, -0.06, 0.21, 0.05, 0.03. With KLSQSVQYESRNKNNVA / HASTRES / QQYHRLPLS the result was -0.01, 0.10, -0.01, -0.42, -0.10, 0.05. For KSSQSVSEESSNKNSVA / WASSRES / QQYHRLPLS, the assay gave 1.27, nd, nd, nd, nd, 0.75. With KSQQQVLYESRNKNSVA / WASTRES / QQYHRLPLS the result was nd, 3.12, nd, nd, 2.89, nd. The variant KISQSVLYESRNKNNVA / QASTRES / QQPHRLPLS gave 0.85, 0.64, 0.30, 0.36, 0.13, 0.62. The variant KSSQSVLYESRNKNSVA / WASTREL / QQYHRLPLS gave 1.55, nd, 1.35, 1.42, 1.79, 1.45. With KLSGSMLYESRNKNSVA / SASTRES / QQYHRLPLS the result was -0.07, 0.01, -0.09, -0.06, -0.10, 0.02.

The variant KVSQSVLYESRNKNSVA / EASTREA / QQYHRLPLS gave 0.13, 0.01, -0.03, -0.01, -0.10, -0.09. The variant KASQSWGYESRNKWSVA / NASTRES / QQYHRLPLS gave -0.21, -0.32, -0.46, -0.69, -0.83, 0.46. The variant KASQSVLGEQRNKNSVA / DISTRES / QQYHRLPLS gave 0.14, 0.05, 0.00, -0.12, -0.08, 0.20. The variant KSSQSVLYFSRNKNSVA / WASTRES / QQYHHLPLS gave nd, nd, nd, nd, nd, nd. The variant KLSQGVLYQSRNKNSVA / GASTRES / QQYHRLPLS gave 0.17, -0.03, -0.05, -0.06, -0.06, 0.13. The variant KSSQSVLTEGRNKNSVA / QASNRES / QQYHRLPLS showed 0.34, 0.65, 0.41, 0.50, 0.63, 0.55. With KSSISGLYESRMKNSVA / EASTREQ / QQYHRLPLS the result was nd, 1.04, -0.18, 1.11, 1.51, 1.68. With KSSQSVLYEGRNKNGVA / DASTRES / QQYHRLPLS the result was 0.63, 0.89, 0.38, 0.51, 0.39, 0.64. The variant KSNQEVEYESRNKNSVA / WASTRES / QQYHRLPLE showed nd, 1.67, nd, 2.23, 1.67, nd.

For KSSQSVGYESRNKNSVA / NASTRES / QQYHILPGS, the assay gave nd, nd, nd, nd, nd, nd. For KSSQSVLEESRNKNSVA / EASQRES / QGYHRLPLS, the assay gave 1.47, 0.75, 0.89, 1.03, 1.13, 1.80. For KSSMSVQYESRNKNSVA / WASTRES / QQYHRLPLS, the assay gave nd, 1.40, 1.94, 2.64, 1.90, 2.26. The variant KLAQSVLYESRNKNNVA / EASTRES / QQYHRLPLS showed -0.02, -0.27, -0.04, -0.39, -0.39, 0.05. With KQSHSLLYESRNKNSVA / WASTRES / QQYHRLPLS the result was 1.40, nd, nd, 2.41, nd, 1.40. With KLSMSQLYESRNKNSVA / NASTRES / QQYHRLPLS the result was -0.20, -0.22, -0.66, -0.84, -0.48, -0.32. For KLPQSELYESRNKNSVA / AASTRES / QQYHRLPLS, the assay gave 0.20, 0.13, -0.10, -0.14, -0.02, 0.13. The variant KSSQSVVGESPNKNSVA / WASTRES / QQYHRWPLS gave nd, nd, nd, nd, nd, nd. The variant KVQQSQLYESRNKNSVA / NASTRES / QQYHRLPLS showed 0.27, 0.13, -0.04, 0.06, -0.17, 0.15.

The variant KTGQGVLYESRNKNSVA / GASHRES / QQYHRLPLS showed 0.59, 0.29, 0.49, 0.46, 0.58, 0.65. The variant KSSQSVEYESRNKNSVA / GASTRED / QQYHRLPLS gave -0.05, 0.04, -0.16, -0.01, -0.08, -0.10. The variant KSSQSVSYESTNKNSVA / SASTRIS / QQYHRNPLS showed nd, 1.64, nd, nd, 2.11, 2.46. The variant KSSQSVLYESGNKNSVA / EASTREQ / QQYHRLPLS gave 0.62, 0.49, 0.73, 0.56, 0.55, 0.66. The variant KLSQSVQYESRNKNSVA / NASTRES / QQYHRLPLS showed 1.05, 0.61, 0.44, 0.78, 1.15, 0.52.

For reference, 3 entries of the list once more:

CDR-L1	CDR-L2	CDR-L3	log10 Kd (nM) by replicate
KVQQSQLYESRNKNSVA	NASTRES	QQYHRLPLS	0.27, 0.13, -0.04, 0.06, -0.17, 0.15
KASQSVLGEQRNKNSVA	DISTRES	QQYHRLPLS	0.14, 0.05, 0.00, -0.12, -0.08, 0.20
KQSHSLLYESRNKNSVA	WASTRES	QQYHRLPLS	1.40, nd, nd, 2.41, nd, 1.40

The authors averaged sequences with at least three values out of six and counted those with two or fewer as poor binders.
As a blank, each scFv also met three strains without target: over all light chain designs, 4% of these pairings were detected, typically at 2.64 and seldom below 1.59.
The range of this assay differs from that of the first round, and the authors advise against merging the two.

From the AlphaSeq antibody data of Li et al. 2023 (doi:10.1038/s41467-023-39022-2), copy in the FLAb collection.